One may read the inhibition as the share of the control response that was lost under treatment. Broadly, the Ki is a measure of affinity in units of concentration, obtained from inhibition or displacement.

We go through 22 compounds from patent US20250320214A1, “ORGANIC COMPOUNDS” (INTRA-CELLULAR THERAPIES, INC., priority 2022, published 2025).

Where two headings read alike, the source gives them in different places.

One assay has as its target D1 (Homo sapiens, UniProt P21728). Briefly: Receptor binding, D1. The following applies: for inhibition at 0.1 µM: read-out: D1 maximum inhibition.
The target in another assay is D2 (Homo sapiens, UniProt P14416). Briefly: Receptor binding, D2.
The next assay has as its target 5-HT2A (Homo sapiens, UniProt P28223). Briefly: Receptor binding, 5-HT2A. The following applies: for inhibition at 0.1 µM: read-out: 5-HT2A maximum inhibition; for 5-HT2A maximum inhibition: 0.1 µM.
Another assay concerns the target SERT (Homo sapiens, UniProt P31645). Briefly: Receptor binding, SERT. The following applies: for inhibition at 0.1 µM: at 100 nM.
Another assay deals with Mu opioid receptor (Homo sapiens, UniProt P35372). Briefly: Receptor binding, Mu opioid receptor. The following applies: for inhibition at 0.1 µM: at 100 nM, read-out: Mu maximum inhibition.
Where [1] appears, read: read-out: D2 maximum inhibition.
Setting [2] is: at 100 nM, read-out: D2 maximum inhibition.
[3] abbreviates: at 200 nM, read-out: SERT maximum inhibition.
Setting [4] is: read-out: SERT maximum inhibition.
Setting [5] is: (footnote c), read-out: SERT maximum inhibition.

Consider `O=C1CN2c3c(cccc3[C@@H]3CN(CCCOc4ccccc4)CC[C@@H]32)N1` [Ex. 3, (6bR,10aS)-8-(3-phenoxypropyl)-6b,7,8,9,10,10a-hexahydro-1H-pyrido[3′,4′:4,5]-pyrrolo[1,2,3-de]quinoxalin-2(3H)-one], for which the inhibition at 0.1 µM at D1 was 24%; on D2 (setting [1]), 34%. For the same compound, the inhibitory constant (Ki) at 5-HT2A stood at 2.84 nM. On SERT (at 50 μM (footnote a), read-out: SERT maximum inhibition), the inhibition at 50 µM was determined as 8%.

`N#Cc1cc(F)ccc1OCCCN1CC[C@H]2[C@@H](C1)c1cccc3c1N2CC(=O)N3` [Ex. 25]: the inhibitory constant (Ki) at Mu opioid receptor is 8.4 nM; at D1, 74 nM; on D2 it was 43 nM; at 5-HT2A it was 3.8 nM; on SERT, 35 nM.

Consider `CC(=O)Nc1cccc2c1N[C@H]1CCN(CCCC(O)c3ccc(F)cc3)C[C@@H]21` (stereo partly drawn) [Ex. 16, N-((4aS,9bR)-2-(4-(4-fluorophenyl)-4-hydroxybutyl)-2,3,4,4a,5,9b-hexahydro-1H-pyrido[4,3-b]indol-6-yl)acetamide], for which the inhibition at 0.1 µM at Mu opioid receptor, on D1 (at 100 nM), on D2 (setting [2]) and at 5-HT2A (at 100 nM) was less than 0% throughout. In addition, the inhibition at 0.2 µM on SERT (setting [3]) was less than 0%.

As to `O=C1CN2c3c(cccc3[C@@H]3CN(CCCOc4ccc(OCc5ccccc5)cc4)CC[C@@H]32)N1` [Ex. 7, (6bR,10aS)-8-(3-(4-(benzyloxy)phenoxy)propyl)-6b,7,8,9,10,10a-hexahydro-1H-pyrido[3′,4′:4,5]-pyrrolo[1,2,3-de]quinoxalin-2(3H)-one], the inhibition at 0.1 µM at D1 was found to be 4.6%; at D2 (setting [1]), 23%; at 5-HT2A, 76%. The inhibition at 0.2 µM at SERT (setting [3]) was 68%.

In the case of `O=C1CN2c3c(cccc3[C@@H]3CN(CCCOc4ccc(F)cc4)CC[C@@H]32)N1` [Fm. A, (6bR,10aS)-8-(3-(4-fluorophenoxy)propyl)-6b,7,8,9,10,10a-hexahydro-1H-pyrido[3′,4′:4,5]pyrrolo[1,2,3-de]quinoxalin-2(3H)-one, reference compound], the inhibition at 0.1 µM at D1 was found to be 44%.

For the compound `O=C1CN2c3c(cccc3[C@@H]3CN(CCCC(=O)c4ccc(Cl)s4)CC[C@@H]32)N1` [Ex. 4, (6bR,10aS)-8-(4-(5-chlorothiophen-2-yl)-4-oxobutyl)-6b,7,8,9,10,10a-hexahydro-1H-pyrido[3′,4′:4,5]-pyrrolo[1,2,3-de]quinoxalin-2(3H)-one], the inhibitory constant (Ki) came out at 8.15 nM at Mu opioid receptor, 18.3 nM at 5-HT2A and 66 nM at SERT. Further, the inhibition at 0.1 µM on D1 (at 100 nM) was found to be 34%; at D2 (setting [2]) it was 41%.

Regarding `Cc1cc(OCCCN2CC[C@H]3[C@@H](C2)c2cccc4c2N3CC(=O)N4)ccc1F` [Ex. 21], the affinity at Mu opioid receptor corresponds to a Ki of 69 nM. Further, the inhibition at 0.1 µM at D1 (at 100 nM) is less than 1%; on D2 (setting [2]) it was 0%; on SERT (setting [4]), 14%. On 5-HT2A, this compound returned a 5-HT2A maximum inhibition of 77%.

Take `NC(=O)c1cc(F)ccc1OCCCN1CC[C@H]2[C@@H](C1)c1cccc3c1N2CC(=O)N3` [Ex. 8, 5-fluoro-2-(3-((6bR,10aS)-2-oxo-2,3,6b,9,10,10a-hexahydro-1H-pyrido[3′,4′:4,5]pyrrolo[1,2,3-de]quinoxalin-8(7H)-yl)propoxy)benzamide]: the inhibition at 0.1 µM at D1 (at 100 nM) amounted to 0.78%; on 5-HT2A, 14%. On D2 (at 100 μM (footnote b), read-out: D2 maximum inhibition), the inhibition at 100 µM is less than 0%. In addition, the inhibition at 0.2 µM at SERT (setting [3]) came out at 9.6%.

Regarding `CC(=O)Nc1cccc2c1N[C@H]1CCN(CCCOc3ccc(F)cc3)C[C@@H]21` [Ex. 14, N-((4aS,9bR)-2-(3-(4-fluorophenoxy)propyl)-2,3,4,4a,5,9b-hexahydro-1H-pyrido[4,3-b]indol-6-yl)acetamide], the inhibition at 0.1 µM at Mu opioid receptor was found to be 9%; at D1 (at 100 nM) it was 25%; at D2 (setting [2]) it was 11%; on 5-HT2A (at 100 nM), 67%. Further, at SERT (setting [3]), the inhibition at 0.2 µM came out at 4%.

On to `O=C1CN2c3c(cccc3[C@@H]3CN(CCCOc4ccc(F)cc4Cl)CC[C@@H]32)N1` [Ex. 19], for which the inhibitory constant (Ki) at Mu opioid receptor amounted to 3 nM; on 5-HT2A, 0.6 nM. Moreover, the inhibition at 0.1 µM amounted to 33% on D1 (at 100 nM) and 80% at D2 (setting [2]). The inhibition at 0.2 µM at SERT (setting [3]) is 23%.

`CN1C(=O)CN2c3c(cccc31)[C@@H]1CN(CCCOc3ccc(F)cc3C#N)CC[C@@H]12` [Ex. 26] registered a Mu maximum inhibition on Mu opioid receptor (concentration not printed in this table (row head: Mu (Ki, nM))) of 5%. The inhibition at 0.1 µM at D1 (at 100 nM) is 93%; at D2 (setting [2]) it was 14%; at 5-HT2A (at 100 nM), 91%. Further, the inhibition at 0.2 µM at SERT (setting [3]) was determined as 93%.

In the case of `CCCCN1CC[C@H]2[C@@H](C1)c1cccc3c1N2CC(=O)N3` [Ex. 1, (6bR,10aS)-8-butyl-6b,7,8,9,10,10a-hexahydro-1H-pyrido[3′,4′:4,5]pyrrolo[1,2,3-de]quinoxalin-2(3H)-one], the inhibition at 0.1 µM is 15% at D2 (setting [2]) and less than 0% on 5-HT2A. At SERT (setting [4]), the inhibition at 0.2 µM was less than 0%.

For `N#Cc1cc(OCCCN2CC[C@H]3[C@@H](C2)c2cccc4c2N3CC(=O)N4)ccc1F` [Ex. 23], the inhibition constant Ki at Mu opioid receptor was 65 nM. In addition, the inhibition at 0.1 µM at D1 (at 100 nM) was determined as 0%; at D2 (setting [2]), 0%; on SERT (setting [4]), 13%. Also, the 5-HT2A maximum inhibition on 5-HT2A stood at 35%.

As to `Cc1cc(F)cc(C)c1OCCCN1CC[C@H]2[C@@H](C1)c1cccc3c1N2CC(=O)N3` [Ex. 11, (6bR,10aS)-8-(3-(4-fluoro-2,6-dimethylphenoxy)propyl)-6b,7,8,9,10,10a-hexahydro-1H-pyrido[3′,4′:4,5]-pyrrolo[1,2,3-de]quinoxalin-2(3H)-one], the inhibition at 0.1 µM on D1 (at 100 nM) is less than 0%; at D2 (setting [2]), less than 0%; on 5-HT2A it was 40%. Further, at SERT (setting [5]), the inhibition at 0.2 µM came to 34%.

For the compound `O=C1CN2c3c(cccc3[C@@H]3CN(CCCOc4ccc(F)c(F)c4)CC[C@@H]32)N1` [Ex. 9, (6bR,10aS)-8-(3-(3,4-difluorophenoxy)propyl)-6b,7,8,9,10,10a-hexahydro-1H-pyrido[3′,4′:4,5]pyrrolo-[1,2,3-de]quinoxalin-2(3H)-one], the Ki is 1.83 nM at Mu opioid receptor and 16.1 nM on 5-HT2A. In addition, the figures for the inhibition at 0.1 µM at D1 and at D2 (setting [1]) were 15% and 7%, respectively. Moreover, on SERT (setting [5]), the inhibition at 0.2 µM is 15%.

At Mu opioid receptor, `O=C1CN2c3c(cccc3[C@@H]3CN(CCCOc4ccc(F)c(Cl)c4)CC[C@@H]32)N1` [Ex. 22] showed an inhibition constant (Ki) of 74 nM. Also, the results for the inhibition at 0.1 µM at D1 (at 100 nM), on D2 (setting [2]) and at SERT (setting [4]) were 0%, 0% and 6%, respectively. In addition, the 5-HT2A maximum inhibition at 5-HT2A is reported as 65%.

In the case of `O=C1CN2c3c(cccc3[C@@H]3CN(CCCS(=O)(=O)c4ccc(F)cc4)CC[C@@H]32)N1` [compound 12, (6bR,10aS)-8-(3-((4-fluorophenyl)sulfonyl)propyl)-6b,7,8,9,10,10a-hexahydro-1H-pyrido[3′,4′:4,5]pyrrolo-[1,2,3-de]quinoxalin-2(3H)-one], the inhibition at 0.1 µM at Mu opioid receptor was less than 0%; at 5-HT2A, 33%. Moreover, the inhibition at 0.2 µM at SERT (setting [3]) was less than 0%.

Turning to `O=C1CN2c3c(cccc3[C@@H]3CN(CCCO)CC[C@@H]32)N1` [Ex. 2, (6bR,10aS)-8-(3-hydroxypropyl)-6b,7,8,9,10,10a-hexahydro-1H-pyrido[3′,4′:4,5]pyrrolo[1,2,3-de]quinoxalin-2(3H)-one], the inhibition at 0.1 µM on 5-HT2A is 8%. For the same compound, the inhibition at 0.2 µM on SERT (setting [3]) is less than 0%.

For `CCc1cc(F)ccc1OCCCN1CC[C@H]2[C@@H](C1)c1cccc3c1N2CC(=O)N3` [Ex. 20], the inhibition constant (Ki) at Mu opioid receptor stood at 5.4 nM; on 5-HT2A, 0.3 nM. The inhibition at 0.1 µM at D1 (at 100 nM) was found to be 66%; at D2 (setting [2]), 69%. The inhibition at 0.2 µM on SERT (setting [3]) was found to be 26%.

On to `CC(=O)Nc1cccc2c1N[C@H]1CCN(CCCC(=O)c3ccc(F)cc3)C[C@@H]21` [Ex. 15, N-((4aS,9bR)-2-(4-(4-fluorophenyl)-4-oxobutyl)-2,3,4,4a,5,9b-hexahydro-1H-pyrido[4,3-b]indol-6-yl)acetamide], for which the inhibition at 0.1 µM came to 11% on Mu opioid receptor, 45% at D1 (at 100 nM), 49% at D2 (setting [2]) and 80% at 5-HT2A (at 100 nM). For the same compound, the inhibition at 0.2 µM at SERT (setting [3]) was less than 0%.

As to `O=C1CN2c3c(cccc3[C@@H]3CN(CCCOc4ccc(O)cc4)CC[C@@H]32)N1` [Ex. 6, (6bR,10aS)-8-(3-(4-hydroxyphenoxy)propyl)-6b,7,8,9,10,10a-hexahydro-1H-pyrido[3′,4′:4,5]pyrrolo[1,2,3-de]quinoxalin-2(3H)-one], the inhibition at 0.1 µM on D1 (at 100 nM) stood at 0.86%; at D2 (setting [1]), 41%; at 5-HT2A, 77%. Moreover, the inhibition at 0.2 µM at SERT (setting [3]) was 11%.

For `Cc1cc(F)ccc1OCCCN1CC[C@H]2[C@@H](C1)c1cccc3c1N2CC(=O)N3` [Ex. 18], the figures for the Ki at Mu opioid receptor and at 5-HT2A were 2.9 nM and 0.4 nM, respectively. In addition, the inhibition at 0.1 µM was determined as 40% at D1 (at 100 nM) and 69% on D2 (setting [2]). For the same compound, at SERT (setting [3]), the inhibition at 0.2 µM was 32%.
